Legend:
S1P1 receptor = S1P1 receptor (Homo sapiens, UniProt P21453); assay: S1P1 receptor agonistic activity (PathHunter cell strain, chemiluminescent signal detection); format: cell-based; settings: read-out: S1P1 receptor agonistic activity; PathHunter cells, agonist mode, 37° C. 90-180 minutes
Description: Test Method: […] Cell Processing i) Thaw the PathHunter cell strain according to the standard procedures. ii) Seed the cell in the 20 μL 384-microwell plate and incubate at 37° C. for an appropriate period. 2. Agonist i) For agonist testing, cells were incubated with the sample to be test to initiate a reaction; ii) The stock solution to be tested has been diluted 5 folds to be a buffer solution; iii) Inject the 5-fold diluted solution (5 μL) into the cells and incubate at 37° C. for 90-180 minutes. […] 3. Signal Detection i) Add 12.5 μL or 15 μL PathHunter detection reagent (50 vol. %) in one portion. Then, incubate at room temperature for 1 hour and generate the detection signal; ii) Use PerkinElmer Evision™ instrument to read the microwell plate to proceed with chemiluminescent signal detection. 4. Data Analysis i) Use CBIS data analysis system for the compound activity analysis. ii) Calculation formula: […]

Sequences of proteins named here, by UniProt entry; tags and fusion partners are left off.
UniProt P21453, whole entry: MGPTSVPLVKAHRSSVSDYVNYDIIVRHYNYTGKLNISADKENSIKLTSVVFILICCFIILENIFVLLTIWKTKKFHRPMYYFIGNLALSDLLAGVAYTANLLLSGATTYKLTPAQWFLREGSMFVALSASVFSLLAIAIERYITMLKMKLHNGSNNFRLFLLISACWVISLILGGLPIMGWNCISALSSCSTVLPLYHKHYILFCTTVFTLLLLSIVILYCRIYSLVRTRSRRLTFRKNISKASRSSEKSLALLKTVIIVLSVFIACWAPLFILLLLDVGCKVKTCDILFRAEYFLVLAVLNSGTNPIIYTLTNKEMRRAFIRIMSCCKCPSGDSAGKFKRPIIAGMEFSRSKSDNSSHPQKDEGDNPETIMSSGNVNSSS

[1] = Evaluation of compound pharmacokinetics in SD rats (intravenous injection and oral administration); format: in vivo, Sprague Dawley rats; settings: 3 mpk
Description: Aim of the experiments: To test pharmacokinetics of the compounds in SD rats. Experimental Materials: Sprague Dawley rats (male, 200-300 g, 7-9 weeks old, Shanghai Slack) Experimental Procedure: The rodent pharmacokinetic characteristics of the compounds after intravenous injection and oral administration were tested by the standard protocol. In the experiments, the transparent solution was prepared with the compounds to be test. The rats were administered single intravenous injection and oral administration. The solvent for intravenous injection and oral administration was aqueous hydroxypropyl β-cyclodextrin solution or normal saline solution with a certain concentration. Collect the blood samples within 24 hours and centrifuge at 3000 G for 15 minutes. Separate the supernatant to obtain the plasma samples. A volume of acetonitrile solution containing internal standard was added 4 times as the sample to precipitate the protein. The supernatant was obtained after centrifuge. An equal volume of water was added and then centrifuge again to collect the supernatant. The LC-MS/MS method was used to quantitatively analyze the blood drug concentration and the pharmacokinetic parameters such as peak concentration, peak time, clearance rate, half-life period, area under the curve of the drug concentration, and fraction of bioavailability, etc. were calculated.

Row | Clearance rate [1] | Drug concentration integral: AUC [1] | Fraction of bioavailability: F [1] | Half-life period: T1/2 [1] | Compound | EC50 (S1P1 receptor)
1 |  |  |  |  | CC(C)Oc1ccc(-c2nc(-c3cccc4c3CC3CC(=O)N(CC(=O)O)C43)no2)cc1C#N (stereo not shown) | < 10 nM
2 |  |  |  |  | CC(C)Oc1ccc(-c2noc(-c3cccc4c3C[C@@H]3CC(=O)N(CCO)[C@H]43)n2)cc1C#N | < 10 nM
3 | 44.3 mL/min/kg | 1.114 µM·h | 42.8% | 1.48 h | CC(C)Oc1ccc(-c2nc(-c3cccc4c3CC3CC(=O)N(CCO)C43)no2)cc1C#N (single isomer, unassigned) | 
4 |  | 6.825 µM·h |  |  | CC(C)Oc1ccc(-c2nc(-c3cccc4c3C[C@@H]3CC(=O)N(CCO)[C@H]43)no2)cc1C#N (single isomer, unassigned) | 
